## Antibody variant affinities, Ab-14 light chain, assay 1

Values reported by Engelhart et al. 2022, doi:10.1038/s41597-022-01779-4 (FLAb copy).

Binding partner: SARS-CoV-2 spike HR2 peptide, sequence PDVDLGDISGINAS.

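The starting antibody came from a phage panning campaign against this peptide. AAYL50 was designed without a model: most single CDR substitutions and a random sample of double and triple ones. The scFvs were displayed on barcoded MATa yeast, the peptide on MATalpha yeast. After mating in shaken culture at 30 °C for 16 h, diploids were selected and their barcode pairs sequenced. A regression on co-assayed BCL2-family reference pairs converts the normalised counts of each replicate to an apparent Kd. Each pool was mated in three replicate cultures.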

Each scFv is VH, three GGGGS repeats, VL, as in the parent Ab-14, and differs from it in the CDRs of the light chain only.
VH: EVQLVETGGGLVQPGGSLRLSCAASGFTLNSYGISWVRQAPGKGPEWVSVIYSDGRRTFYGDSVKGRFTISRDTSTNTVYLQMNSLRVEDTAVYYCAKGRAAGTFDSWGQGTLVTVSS
VL: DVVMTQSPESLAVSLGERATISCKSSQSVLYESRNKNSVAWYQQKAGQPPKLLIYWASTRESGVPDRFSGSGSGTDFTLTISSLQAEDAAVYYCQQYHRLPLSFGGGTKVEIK

Substitutions are numbered in sequence along the VL above, starting at 1 (not Kabat).
Every variant below is changed at V39 of the VL (sequential numbering).
Values are apparent Kd, the geometric mean of the replicates that gave a signal; lower means stronger binding.
A pair that was not seen in any replicate is written "no signal"; this usually means weak binding, but a binder can also be missed.

Variant S28R S33P V39L showed 160 nM (3 of 3 replicates). Variant V39R R60I showed no signal (0 of 3 replicates). For S25D Q27N V39H, the assay gave no signal (0 of 3 replicates). For R34P N37E V39D, the assay gave no signal (0 of 3 replicates). Variant K24V V39R S58M showed no signal (0 of 3 replicates).

With Y31K V39R R60N the result was no signal (0 of 3 replicates). For S38P V39Q P101Q, the assay gave 170 µM (1 of 3 replicates). With S33Q V39G the result was 1.6 nM (3 of 3 replicates). Variant V39H A40S L100M gave 48 µM (3 of 3 replicates). For Q27F V39T, the assay gave 80 µM (1 of 3 replicates).

Variant V39I Q96E S103Y gave 19 nM (3 of 3 replicates). With V39H E61V R99E the result was 14 µM (2 of 3 replicates). With Y31V S33M V39M the result was 350 µM (1 of 3 replicates). Variant S38A V39C S58Y gave no signal (0 of 3 replicates). With S25P V39R P101A the result was no signal (0 of 3 replicates).

Variant N37W V39N showed no signal (0 of 3 replicates). Variant V39L L102W gave 260 nM (3 of 3 replicates). Variant S26E V29G V39M gave 970 nM (3 of 3 replicates). For R34P K36L V39Y, the assay gave 780 µM (1 of 3 replicates). With V39R A57W L100Q the result was 650 µM (1 of 3 replicates).

For K36G V39N R60G, the assay gave 56 µM (3 of 3 replicates). With V39L S62I R99I the result was 2.1 µM (3 of 3 replicates). Variant V29E S38M V39P gave 4.8 µM (1 of 3 replicates). Variant Y31A K36H V39N gave 4.2 µM (1 of 3 replicates). Variant L30D V39S W56P showed 31 µM (1 of 3 replicates).

Variant V39W showed no signal (0 of 3 replicates). Variant V39P A40H S58W gave 1.2 µM (1 of 3 replicates). For V39T R60I L102M, the assay gave 20 µM (3 of 3 replicates). Variant N35V V39K L102T gave no signal (0 of 3 replicates). For K24M V39E Y97G, the assay gave no signal (0 of 3 replicates).

Variant R34L V39D S62H showed 6.7 µM (1 of 3 replicates). With V39S S58R Q96C the result was 44 µM (1 of 3 replicates). With V39C A40Q P101H the result was no signal (0 of 3 replicates). For V39M A40I E61T, the assay gave 28 µM (2 of 3 replicates).

Excerpt, the final 2 entries:

With V39C A40Q P101H the result was no signal (0 of 3 replicates).
With V39M A40I E61T the result was 28 µM (2 of 3 replicates).

Parent in this assay: reference entry 4.4 nM, copy in this library 48 nM.
Nonspecific signal, from three strains lacking the peptide, appeared in 18% of pairings of library AAYL50, centred on 15 µM (5% of these signals below 970 nM); values are not corrected for it.